Data as given in patent US5516525A, “Vitamin D derivative feed compositions and methods of use” (University of Georgia Research Foundation, Inc., priority 1994, dated 1996).

Tested on: phytate phosphorus utilization
Test: calcium, phosphorus and phytate phosphorus retention
Conditions: in words, Example 1

Row | SMILES | utilization of phytate phosphorus
1 | C=C1CC[C@H](O)C/C1=C/C=C1\CCC[C@]2(C)[C@@H]([C@H](C)CCC(O)C(C)(C)O)CC[C@@H]12 (stereo partly drawn) [24,25-(OH)2 D3, 24,25-dihydroxycholecalciferol, reference compound] | did not appear to increase phytate phosphorus utilization in the absence of phytase
2 | C=C1/C(=C\C=C2/CCC[C@]3(C)[C@@H]([C@H](C)CCCC(C)C)CC[C@@H]23)C[C@@H](O)C[C@@H]1O [1-OHD3, 1-hydroxycholecalciferol] | did not appear to increase phytate phosphorus utilization in the absence of phytase
3 | O.O=P([O-])([O-])O.[Na+].[Na+] [P, Na2 HPO4 H2 O] | decreases phytate phosphorus utilization
